The source of these data is US10369221B2, “Conjugated porphyrin carbon quantum dots for targeted photodynamic therapy” (Hong Kong Baptist University, priority 2016, dated 2019).

Data set [1] concerns HLF cells. Description: In vitro PDT effect, CCK-8 assay, normal HLF cells. The class given is cell-based. The protocol:
To compare the dark toxicity and phototoxicity of the porphyrin carbon quantum dots, the stock solutions of nanomedicines were diluted with fresh medium to various concentrations (5, 10, 20, 50 and 100 μg/mL). The cells were then incubated with these solutions at 37° C. in 5% CO2 for 4 h, and the cultures were then irradiated using a 500 W Xe lamp as the light source with an intensity of 6.5 mW/cm^2 for 0 or 30 min before removing the porphyrin carbon quantum dots solution and adding fresh medium. Subsequently, the plates were incubated at 37° C. in 5% CO2 for 24 h. The cell medium solutions were exchanged for 100 μL of fresh medium, followed by the addition of L of CCK8 solution to each well. The culture plates were then incubated at 37° C. in 5% CO2 for 4 h. The absorbance of an untreated cell population under the same experimental conditions was used as the reference point to establish 100% cell viability. The absorbance of the 96-well plates was detected by a 450 nm laser by a Plate reader (1420 Multi-label Counter Perkin Elmer).
For orientation: Formazan colour is commonly taken as a measure of viable cells.

Data set [2] deals with HCC827 cells. Put plainly: Targeting ability by confocal laser scanning microscope, HCC827 cells (over-expression of EGFR). It is filed as cell-based. The settings on record: 0.5 mg/mL, 12 hours. On the procedure:
(§1) Cellular uptake by cancer cells was examined using a confocal laser scanning microscope (CLSM). Cancer cells were seeded in 6-well culture plates (a sterile cover slip was put in each well) at a density of 5×10^4 cells per well and allowed to adhere for 24 h. After that, the cells were treated with porphyrin carbon quantum dots (0.5 mg/mL) for 12 h at 37° C. After that, the supernatant was carefully removed and the cells were washed three times with PBS. Subsequently, the slides were mounted and observed by confocal microscope (Zeiss Laser Scanning Confocal Microscope; LSM7 DUO) using ZEN 2009 software (Carl Zeiss).

Data set [3] concerns H23 cells. Description: Targeting ability by confocal laser scanning microscope, H23 cells (low expression of EGFR). The class given is cell-based. The note with it: 0.5 mg/mL, 12 hours. On the procedure:
as §1

Data set [4] can be described thus: Zeta potential measurement. The settings on record: pH 7.0 (printed for PCQDs). The class given is physicochemical. On the procedure: Zeta potential is widely used as the indicator of the magnitude of the charge and the stability of nanomaterials. The zeta potential of PCQDs was recorded as −5.90 mV at pH 7.0 (FIG. 1B), due to the existence of —OH/—COOH groups on the surface of porphyrin carbon quantum dots. When Zn(II)TAP is used as passivation agent, the zeta potential changed to −7.19 mV, owing to the absence of protonation inside of ZnPCQDs. The two materials both bear negative charges, which may be responsible for the high water dispersity and solubility of porphyrin carbon quantum dots. After functionalization of PCQDs with PEG diamine, the zeta potential of NH2-PCQDs becomes 5.33 mV, indicating the loss of the carboxylic acid groups upon surface functionalization.

The test system of data set [5] is HCC827 cells. Description: Subcellular localization with DAPI and LysoTracker Green DND-26 staining. It is filed as cell-based. The note with it: 12 hours incubation. On the procedure:
Cancer cells were cultured in Minimum Essential Medium (MEM) containing 10% fetal bovine serum and 1% antibiotics penicillin and streptomycin (P/S) and incubated at 37° C. in a humidified 5% CO2 atmosphere. Cancer cells (6×10^3 cells per well) were seeded in 96-well plates and incubated overnight at 37° C. in a humidified 5% CO2 atmosphere. After being rinsed with PBS (pH 7.4), the cells were incubated with porphyrin carbon quantum dots at a concentration of 0.5 mg/mL for 12 h at 37° C. in the dark under the same conditions. The cells were rinsed with PBS again, and stained by LysoTracker® Green DND-26 for 30 min. After the cells were fixed with 4% paraformaldehyde, DAPI (Invitrogen) was used to mount each coverslip on a glass slide for confocal laser scanning microscope (CLSM).

Data set [6] has as its system HCC827 cells. Description: In vitro PDT effect, CCK-8 assay, HCC827 cells. It is filed as cell-based. The note with it: 0-100 μg/mL.

In the case of “C225-PCQDs: Cetuximab covalently bonded to NH2-PCQDs using a modified EDC-NHS reaction”, the “cytotoxicity to normal cells with laser irradiation” value in data set [1] (24 hour exposure and laser irradiation) is “no significant cytotoxicity”. The “effect on normal cells in dark or upon exposure to light” value in data set [1] (dark or light) is “no effects on normal cells”. Further, the “red fluorescent signals in cells” value is “strong red fluorescent signals” in data set [2] and “very weak red fluorescent signals” in data set [3]. Further, the zeta potential in data set [4] is listed as 2.84 mV. For the same substance, the subcellular localization entry in data set [5] is recorded as “localized primarily in the lysosomes of cells”. Moreover, in data set [6] (24 hours exposure followed by irradiation), the “cytotoxicity after laser irradiation” value is on record as “concentration-dependent cytotoxicity”. In addition, in data set [6] (without irradiation), the “cells surviving without irradiation” value is given as “over 85%”.
